Results published in BindingDB's records for PubMed 1346637 (Mayo Clinic, 1992).

The chains behind the UniProt entries cited, without tags or fusion partners. Where a name states a change or a piece, a line headed by the entry shows the natural chain unless it says otherwise.
UniProt P08173, whole entry: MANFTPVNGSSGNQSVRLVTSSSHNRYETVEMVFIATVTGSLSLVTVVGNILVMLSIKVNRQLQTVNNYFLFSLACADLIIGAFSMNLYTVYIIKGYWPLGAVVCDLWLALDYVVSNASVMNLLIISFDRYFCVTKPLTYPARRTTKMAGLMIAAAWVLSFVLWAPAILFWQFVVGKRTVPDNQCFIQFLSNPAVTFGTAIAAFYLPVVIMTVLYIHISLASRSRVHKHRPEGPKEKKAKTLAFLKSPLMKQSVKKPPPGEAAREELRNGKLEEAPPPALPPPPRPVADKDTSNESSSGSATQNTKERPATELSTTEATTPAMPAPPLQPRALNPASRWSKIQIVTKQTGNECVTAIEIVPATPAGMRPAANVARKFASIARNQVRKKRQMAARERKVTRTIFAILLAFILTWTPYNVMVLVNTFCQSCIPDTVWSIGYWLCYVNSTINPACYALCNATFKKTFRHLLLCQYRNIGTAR
UniProt P11229: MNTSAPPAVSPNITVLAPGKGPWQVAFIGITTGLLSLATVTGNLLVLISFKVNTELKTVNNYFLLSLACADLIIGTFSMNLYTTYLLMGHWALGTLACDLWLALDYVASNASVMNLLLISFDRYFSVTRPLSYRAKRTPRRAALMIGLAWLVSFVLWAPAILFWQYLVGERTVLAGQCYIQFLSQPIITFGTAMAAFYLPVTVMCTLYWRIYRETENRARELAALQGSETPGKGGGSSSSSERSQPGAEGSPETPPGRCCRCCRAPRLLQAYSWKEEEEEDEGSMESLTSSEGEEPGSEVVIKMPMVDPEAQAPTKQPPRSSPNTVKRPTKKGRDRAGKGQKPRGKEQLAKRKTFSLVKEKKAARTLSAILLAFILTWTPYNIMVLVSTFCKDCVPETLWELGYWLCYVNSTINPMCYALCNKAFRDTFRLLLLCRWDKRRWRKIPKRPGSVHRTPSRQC
UniProt P20309, whole entry: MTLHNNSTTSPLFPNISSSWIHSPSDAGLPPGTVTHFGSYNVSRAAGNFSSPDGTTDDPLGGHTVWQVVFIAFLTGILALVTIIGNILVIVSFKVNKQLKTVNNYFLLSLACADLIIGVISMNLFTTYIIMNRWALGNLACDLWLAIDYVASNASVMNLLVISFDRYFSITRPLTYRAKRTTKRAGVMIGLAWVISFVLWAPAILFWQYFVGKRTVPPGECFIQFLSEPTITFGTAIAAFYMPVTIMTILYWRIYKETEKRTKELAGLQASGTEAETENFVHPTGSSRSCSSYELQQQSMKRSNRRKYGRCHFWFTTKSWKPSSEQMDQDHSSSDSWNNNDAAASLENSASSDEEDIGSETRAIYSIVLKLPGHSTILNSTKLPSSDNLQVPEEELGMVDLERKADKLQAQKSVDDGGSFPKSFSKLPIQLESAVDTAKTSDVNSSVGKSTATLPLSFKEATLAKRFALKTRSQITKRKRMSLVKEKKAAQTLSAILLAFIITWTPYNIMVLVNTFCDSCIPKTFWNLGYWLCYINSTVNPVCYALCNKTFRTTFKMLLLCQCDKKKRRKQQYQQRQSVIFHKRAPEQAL

How the values were obtained:
[1] = biological target: Muscarinic acetylcholine receptor M4 (Homo sapiens, UniProt P08173)
[2] = biological target: Muscarinic acetylcholine receptor M1 (Homo sapiens, UniProt P11229)
[3] = biological target: Muscarinic acetylcholine receptor M3 (Homo sapiens, UniProt P20309)

Row | Structure (SMILES) | Ki [1] [nM] | Ki [2] [nM] | Ki [3] [nM]
1 | CN1C2CC(OC(=O)C(CO)c3ccccc3)CC1C1OC12 (stereo not drawn) [3-hydroxy-2-phenyl-propionic acid 9-methyl-3-oxa-9-aza-tricyclo[3.3.1.0*2,4*]non-7-yl ester] | 0.8 | – | –
2 | CN1CCN(C2=c3ccccc3=Nc3ccc(Cl)cc3N2)CC1 [6-chloro-10-(4-methylpiperazin-1-yl)-2,9-diazatricyclo[9.4.0.0^{3,8}]pentadeca-1,3(8),4,6,10,12,14-heptaene] | – | 3.1 | 20
